The chains behind the UniProt entries cited, without tags or fusion partners.
UniProt Q5U3Y7, whole entry: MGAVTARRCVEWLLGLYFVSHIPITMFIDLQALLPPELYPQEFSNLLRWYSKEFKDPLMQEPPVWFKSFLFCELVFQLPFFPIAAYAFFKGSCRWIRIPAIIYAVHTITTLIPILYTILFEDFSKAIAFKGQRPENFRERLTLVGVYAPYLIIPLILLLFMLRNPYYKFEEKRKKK
UniProt Q12809, whole entry: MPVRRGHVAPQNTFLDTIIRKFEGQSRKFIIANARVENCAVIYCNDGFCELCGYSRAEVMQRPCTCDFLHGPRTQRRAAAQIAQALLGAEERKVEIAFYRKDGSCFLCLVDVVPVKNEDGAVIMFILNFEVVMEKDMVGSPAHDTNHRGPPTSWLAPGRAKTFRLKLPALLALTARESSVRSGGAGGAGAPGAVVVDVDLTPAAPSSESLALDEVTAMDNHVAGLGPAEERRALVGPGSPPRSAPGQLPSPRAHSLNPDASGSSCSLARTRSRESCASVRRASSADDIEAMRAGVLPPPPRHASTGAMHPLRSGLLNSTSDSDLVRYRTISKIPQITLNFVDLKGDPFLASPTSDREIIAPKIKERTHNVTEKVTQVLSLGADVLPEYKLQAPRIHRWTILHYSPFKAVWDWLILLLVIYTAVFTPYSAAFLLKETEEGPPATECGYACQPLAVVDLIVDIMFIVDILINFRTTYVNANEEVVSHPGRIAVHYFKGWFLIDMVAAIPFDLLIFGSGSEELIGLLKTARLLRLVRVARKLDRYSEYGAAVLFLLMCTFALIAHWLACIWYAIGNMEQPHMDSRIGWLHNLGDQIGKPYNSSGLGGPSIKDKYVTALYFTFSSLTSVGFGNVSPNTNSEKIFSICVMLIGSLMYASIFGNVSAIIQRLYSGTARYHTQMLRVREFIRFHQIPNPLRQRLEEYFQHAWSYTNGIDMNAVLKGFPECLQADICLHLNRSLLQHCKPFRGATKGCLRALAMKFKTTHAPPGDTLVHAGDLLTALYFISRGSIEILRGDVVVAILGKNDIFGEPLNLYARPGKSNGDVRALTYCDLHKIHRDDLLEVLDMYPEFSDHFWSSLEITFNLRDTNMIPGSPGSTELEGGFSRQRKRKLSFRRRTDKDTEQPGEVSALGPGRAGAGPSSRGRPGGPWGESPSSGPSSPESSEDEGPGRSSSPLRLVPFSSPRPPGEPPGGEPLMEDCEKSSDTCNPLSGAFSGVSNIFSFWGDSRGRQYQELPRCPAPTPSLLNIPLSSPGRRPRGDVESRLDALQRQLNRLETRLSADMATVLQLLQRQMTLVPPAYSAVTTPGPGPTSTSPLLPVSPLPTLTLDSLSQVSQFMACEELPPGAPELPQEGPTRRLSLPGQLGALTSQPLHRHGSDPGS
UniProt Q99720, whole entry: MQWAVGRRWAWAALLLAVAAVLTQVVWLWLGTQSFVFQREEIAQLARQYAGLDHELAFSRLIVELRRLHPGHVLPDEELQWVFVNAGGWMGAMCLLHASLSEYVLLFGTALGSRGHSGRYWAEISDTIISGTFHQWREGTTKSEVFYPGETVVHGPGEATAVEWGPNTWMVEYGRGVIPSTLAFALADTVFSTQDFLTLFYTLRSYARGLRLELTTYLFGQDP

According to patent US11214540B2, “Compositions for treating neurodegenerative diseases” (COGNITION THERAPEUTICS, INC., priority 2017, dated 2022):

How the values were obtained:
[1] = system: Abeta oligomer-induced membrane trafficking deficits in primary hippocampal neurons; assay: Membrane Trafficking/Exocytosis (MTT) assay, Abeta oligomer effect on neurons; conditions: read-out: EC50 Abeta
log P = format: physicochemical
[2] = molecular target: Sigma-2 receptors on membranes from rat cerebral cortex (Rattus norvegicus (Rat), UniProt Q5U3Y7); assay: Competitive Radioligand Binding Assay 1, Sigma-2 binding ([3H]DTG displacement with (+)pentazocine mask); conditions: read-out: S2 Ki; sigma-2 receptor affinity
potassium channel hERG = potassium channel hERG (Homo sapiens (Human), UniProt Q12809); assay: In vitro testing for hERG inhibition; conditions: read-out: hERG IC50; in vitro toxicity potassium channel hERG
[3] = Mouse liver microsome (MLM) stability; conditions: microsomal stability in mouse liver microsomes (MLM)
[4] = molecular target: Sigma-1 receptors on Jurkat cell membranes (Homo sapiens (Human), UniProt Q99720); assay: Competitive Radioligand Binding Assay 1, Sigma-1 binding ([3H](+)pentazocine displacement); conditions: read-out: S1 Ki; sigma-1 receptor affinity

| SMILES | log P (log P) | Ki [2] [µM] | MLM T1/2 [3] [min] | Ki [4] [µM] | EC50 [1] [µM] | IC50 (potassium channel hERG) [µM] |
| --- | --- | --- | --- | --- | --- | --- |
| CC(C)=CC(CC(C)(C)c1ccc(Cl)cc1)NCC1CCOCC1 (stereo not shown) | 5.3 | – | – | – | 1.8 | – |
| CC(C)=CC(CC(C)(C)c1ccc(C)cc1)NC(C)c1ccccc1 (stereo not shown) | 6.93 | – | – | – | 0.56 | – |
| CC(CC(C)(C)c1ccc(Cl)cc1)N1CCC(CCO)CC1 (stereo not shown) | 4.4 | – | – | – | > 15 | 0.075 |
| CC(CC(C)(C)c1ccc(Cl)cc1)N1CCC[C@@H]1CO (stereo partly shown) | 4.03 | – | – | – | – | 11 |
| CC(CC(C)(C)c1ccc(C(F)(F)F)cc1)N1CCC(CO)CC1 (stereo not shown) | 4.31 | – | – | 0.0007 | > 15 | 1.5 |
| CC(C)=CC(CC(C)(C)c1ccc(C(F)(F)F)cc1)N1CCN(C2CC(C)OC(C)C2)CC1 (stereo not shown) | 6.18 | – | 38 | 0.0088 | 0.2 | 26.2 |
| COC[C@H]1CCCN1[C@H](C)CC(C)(C)c1ccc(C(F)(F)F)cc1 | 4.95 | – | – | 1 | 0.98 | 11 |
| CC(C)=CC(CC(C)(C)c1ccc(C)cc1)N1CCC(c2ccncc2)CC1 (stereo not shown) | 6.22 | – | – | – | 0.4 | – |
| CC(C)=CC(CC(C)(C)c1ccc(C)cc1)N[C@@H](C)c1ccccc1 (stereo partly shown) | 6.93 | – | – | – | 4.2 | – |
| CC(C)=CC(CC(C)(C)c1ccc(F)cc1)N1CCN(C(=O)OCC(C)C)CC1 (stereo not shown) | 5.74 | 0.094 | – | 0.575 | – | 2.4 |
| COc1ccc(CCC(C)(C)N2Cc3ccc(S(C)(=O)=O)cc3C2)cc1OC | – | 0.011 | – | – | – | – |
| CC(C)=CC(CC(C)(C)c1ccc(C(F)(F)F)cc1)N1CCC(C)(C)CC1 (stereo not shown) | 6.97 | – | 83 | – | 2.2 | 6.5 |
| COc1ccc(C(C)(C)CC(C=C(C)C)N2CCC(c3ccncc3)CC2)cc1 (stereo not shown) | 5.55 | – | – | – | – | – |

The next lines start with results.

| log P (log P) | Ki [2] [µM] | MLM T1/2 [3] [min] | Ki [4] [µM] | SMILES | EC50 [1] [µM] | IC50 (potassium channel hERG) [µM] |
| --- | --- | --- | --- | --- | --- | --- |
| 6.31 | 0.096 | – | – | CC(C)=CC(CC(C)(C)c1ccc(C)cc1)N1CCC(C)CC1 (stereo not shown) | 1.7 | – |
| 5.04 | – | 88 | 0.15 | CC(C)=CC(CC(C)(C)c1ccc(Cl)cc1)N1CCC(CO)CC1 (stereo not shown) | – | 6.9 |
| 4.49 | – | – | 0.571 | COC(=O)N1CCN(C(C=C(C)C)CC(C)(C)c2ccc(F)cc2)CC1 (stereo not shown) | – | 1.9 |
| 4.84 | – | 8.8 | 0.039 | CC(C)=CC(CC(C)(C)c1ccc(F)cc1)NCC1CCOCC1 (stereo not shown) | – | 16 |
| 5.85 | – | 14 | 0.04 | CC(C)=CC(CC(C)(C)c1ccc(F)cc1)N1CCC(C2CCOCC2)CC1 (stereo not shown) | 1.6 | 2.2 |
| 6.21 | – | 3.5 | 0.37 | CC(C)=CC(CC(C)(C)c1ccc(F)cc1)N1CCC(C(F)(F)F)CC1 (stereo not shown) | 0.3 | 18 |
| 6.15 | – | 60 | 0.0053 | CC(C)=CC(CC(C)(C)c1ccc(C(F)(F)F)cc1)N1CCC2(CCOCC2)CC1 (stereo not shown) | – | 23 |
